Molecular target: T1, MAO–A (Rattus norvegicus, UniProt P21396)
T1 construct: the obtained SD rat liver mitochondrial concentrate was the experimental monoamine oxidase stock solution; from tissue; host or cells: male SD rat liver mitochondria
Assay: MAO–A inhibitory activity (enzyme pre-incubated with pargyline)
Assay type: biochemical
Description: Male SD rats were sacrificed by decapitation, operated on ice, their livers were removed, and the liver surface was washed with precooled phosphate buffer. The liver was cut into pieces, and after washing (using PBS), 20 mL of 0.3 M sucrose buffer was added for homogenization. After fully homogenized, it was balanced by a tray balance. Low–temperature differential centrifugation was performed, and the obtained SD rat liver mitochondrial concentrate was the experimental monoamine oxidase stock solution, and was stored in a −80 °C refrigerator.
Added 25 µL of enzyme dilution solution and 25 µL of test derivatives (control group plus rasagiline, blank group plus 10% DMSO) to 96–well plate, incubated at 37 °C for 1 h, then 120 µL of substrate was added, 80 µL of chromogenic solution was added, incubated at 37 °C for 30 min, and its absorbance measured at 490 nm. In addition, in order to exclude the influence of protein, a protein control group was established, only the enzyme dilution was added, and the rest were replaced with PBS, and the absorbance value was detected at a wavelength of 490 nm. The inhibition rate of each concentration was substituted into the calculation software GraphPad Prism 8 to calculate the IC50 value.
The inhibition rate of each concentration was substituted into the calculation software GraphPad Prism 8 to calculate the IC50 value.

Chains of the proteins cited; added tags and fusions are not shown.
UniProt P21396, whole entry: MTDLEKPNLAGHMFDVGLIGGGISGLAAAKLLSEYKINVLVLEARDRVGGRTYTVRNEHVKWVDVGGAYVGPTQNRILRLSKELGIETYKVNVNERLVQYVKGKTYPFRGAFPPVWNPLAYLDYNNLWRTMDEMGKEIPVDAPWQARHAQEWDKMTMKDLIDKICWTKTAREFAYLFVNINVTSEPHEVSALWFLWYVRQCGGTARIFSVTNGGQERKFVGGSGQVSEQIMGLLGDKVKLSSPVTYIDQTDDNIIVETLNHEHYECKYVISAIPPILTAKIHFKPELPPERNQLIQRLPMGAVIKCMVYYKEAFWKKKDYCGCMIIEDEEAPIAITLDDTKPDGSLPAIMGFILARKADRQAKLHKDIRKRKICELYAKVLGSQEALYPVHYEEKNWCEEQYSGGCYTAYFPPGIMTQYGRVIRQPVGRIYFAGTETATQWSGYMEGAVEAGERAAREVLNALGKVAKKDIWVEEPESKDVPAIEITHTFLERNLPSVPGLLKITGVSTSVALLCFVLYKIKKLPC

## C#CCN(C)CCCOc1ccc(Cl)cc1Cl [Clorgyline, reference compound]
  Inhibition Rate (%) MAO–A: 84.21%

Source: article PMC9782539, “Synthesis, Characterization and Biological Evaluation of Benzothiazole–Isoquinoline Derivative” (Molecules, 2022)
